Like-named read-outs stand apart in the source and are kept apart here.
Key:
[1] = system: hGluN1a and hGluN2B-wt or GluN2B-G689C or G689S; assay: Assessing potentiation by D-serine, TEVC in oocytes (all channel types together); details: 100 μM D-serine; for augmentation of currents by D-serine: 5 mM glutamate
[2] = biological target: hGluN1a + GluN2B-G689S (Homo sapiens, UniProt Q05586+Q13224, G689S); assay: Assessing potentiation by D-serine, TEVC in oocytes; details: 100 μM D-serine, 1 μM glycine
[3] = biological target: hGluN1a + GluN2B-G689C (Homo sapiens, UniProt Q05586+Q13224, G689C); assay: as above; details: 100 μM D-serine, 1 μM glycine
[4] = system: hGluN1a + hGluN2B-wt + hGluN2B-G689S; assay: Dominant-negative experiments: glutamate dose-response of mixed channels (mRNA titration), TEVC in oocytes; assay type: cell-based, human
[5] = system: hGluN1a + hGluN2B-wt + hGluN2B-G689C; assay type: cell-based, human
[6] = biological target: T1, hGluN1a + hGluN2B-G689C (Homo sapiens, UniProt Q05586+Q13224, G689C); assay: Apparent open probability: MK-801 block kinetics, TEVC in oocytes; assay type: cell-based; design: expressed in transfected cells; host or cells: Xenopus laevis oocytes injected with in vitro transcribed mRNA (pCI-Neo plasmids produced by the Traynelis lab); details: 1 μM MK-801 after 3 mM glutamate, 100 μM glycine
[7] = biological target: T2, hGluN1a + hGluN2B-G689S (Homo sapiens, UniProt Q05586+Q13224, G689S); assay: as above; assay type: cell-based; design: expressed in transfected cells; host or cells: Xenopus laevis oocytes injected with in vitro transcribed mRNA; details: 1 μM MK-801 after 3 mM glutamate, 100 μM glycine
[8] = biological target: T1, hGluN1a + hGluN2B-G689C; assay: Mg2+ dose-response (block), TEVC in Xenopus oocytes; assay type: cell-based; design: expressed in transfected cells; host or cells: Xenopus laevis oocytes injected with in vitro transcribed mRNA (pCI-Neo plasmids produced by the Traynelis lab); details: 5 mM glutamate, 100 μM glycine, −60 mV; read-out: Mg^+2 IC50 (−60 mV)
Source text: (§1) All automatically identified minis were validated by user.

Protein sequences, listed by entry. Tags and fused reporters are not part of them. Residues count along the entry.
UniProt Q13224, 27-1484 G689S: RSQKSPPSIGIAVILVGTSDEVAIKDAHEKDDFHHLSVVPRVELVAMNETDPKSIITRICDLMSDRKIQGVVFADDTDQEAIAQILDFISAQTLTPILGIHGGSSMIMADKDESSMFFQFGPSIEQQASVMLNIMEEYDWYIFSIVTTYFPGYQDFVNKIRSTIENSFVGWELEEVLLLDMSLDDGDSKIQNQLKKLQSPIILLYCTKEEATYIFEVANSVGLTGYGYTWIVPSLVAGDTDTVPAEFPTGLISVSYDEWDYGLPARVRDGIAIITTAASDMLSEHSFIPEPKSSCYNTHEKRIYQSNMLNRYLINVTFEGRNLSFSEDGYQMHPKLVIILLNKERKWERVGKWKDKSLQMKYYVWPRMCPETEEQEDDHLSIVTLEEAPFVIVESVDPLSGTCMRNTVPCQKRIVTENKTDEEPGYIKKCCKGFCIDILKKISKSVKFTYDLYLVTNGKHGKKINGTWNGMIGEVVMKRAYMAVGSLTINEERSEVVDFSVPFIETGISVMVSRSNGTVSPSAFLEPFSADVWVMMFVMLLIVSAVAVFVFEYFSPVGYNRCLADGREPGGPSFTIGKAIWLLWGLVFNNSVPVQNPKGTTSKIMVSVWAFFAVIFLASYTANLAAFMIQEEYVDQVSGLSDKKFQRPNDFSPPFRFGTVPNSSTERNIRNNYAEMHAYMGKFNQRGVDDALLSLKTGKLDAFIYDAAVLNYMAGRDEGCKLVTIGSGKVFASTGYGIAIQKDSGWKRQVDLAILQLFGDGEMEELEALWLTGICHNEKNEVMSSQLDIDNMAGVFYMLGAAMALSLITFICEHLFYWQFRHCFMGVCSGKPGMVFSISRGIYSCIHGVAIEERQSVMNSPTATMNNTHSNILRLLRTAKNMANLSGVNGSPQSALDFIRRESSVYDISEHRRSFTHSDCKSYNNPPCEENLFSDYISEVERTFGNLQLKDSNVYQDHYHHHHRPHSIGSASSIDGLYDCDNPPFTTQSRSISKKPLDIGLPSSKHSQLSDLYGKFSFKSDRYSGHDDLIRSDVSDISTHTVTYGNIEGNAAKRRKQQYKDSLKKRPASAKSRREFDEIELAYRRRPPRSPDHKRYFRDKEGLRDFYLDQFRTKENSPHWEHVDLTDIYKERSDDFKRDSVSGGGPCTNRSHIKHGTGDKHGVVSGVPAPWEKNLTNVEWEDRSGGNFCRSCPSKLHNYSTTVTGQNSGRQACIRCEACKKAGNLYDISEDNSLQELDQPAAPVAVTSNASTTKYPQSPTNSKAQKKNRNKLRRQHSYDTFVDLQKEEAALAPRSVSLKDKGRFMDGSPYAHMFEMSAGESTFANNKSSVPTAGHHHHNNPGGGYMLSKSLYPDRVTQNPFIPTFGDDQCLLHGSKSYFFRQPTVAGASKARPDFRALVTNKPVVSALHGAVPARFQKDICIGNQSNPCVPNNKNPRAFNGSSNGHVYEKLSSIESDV
UniProt Q13224, 27-1484 G689C: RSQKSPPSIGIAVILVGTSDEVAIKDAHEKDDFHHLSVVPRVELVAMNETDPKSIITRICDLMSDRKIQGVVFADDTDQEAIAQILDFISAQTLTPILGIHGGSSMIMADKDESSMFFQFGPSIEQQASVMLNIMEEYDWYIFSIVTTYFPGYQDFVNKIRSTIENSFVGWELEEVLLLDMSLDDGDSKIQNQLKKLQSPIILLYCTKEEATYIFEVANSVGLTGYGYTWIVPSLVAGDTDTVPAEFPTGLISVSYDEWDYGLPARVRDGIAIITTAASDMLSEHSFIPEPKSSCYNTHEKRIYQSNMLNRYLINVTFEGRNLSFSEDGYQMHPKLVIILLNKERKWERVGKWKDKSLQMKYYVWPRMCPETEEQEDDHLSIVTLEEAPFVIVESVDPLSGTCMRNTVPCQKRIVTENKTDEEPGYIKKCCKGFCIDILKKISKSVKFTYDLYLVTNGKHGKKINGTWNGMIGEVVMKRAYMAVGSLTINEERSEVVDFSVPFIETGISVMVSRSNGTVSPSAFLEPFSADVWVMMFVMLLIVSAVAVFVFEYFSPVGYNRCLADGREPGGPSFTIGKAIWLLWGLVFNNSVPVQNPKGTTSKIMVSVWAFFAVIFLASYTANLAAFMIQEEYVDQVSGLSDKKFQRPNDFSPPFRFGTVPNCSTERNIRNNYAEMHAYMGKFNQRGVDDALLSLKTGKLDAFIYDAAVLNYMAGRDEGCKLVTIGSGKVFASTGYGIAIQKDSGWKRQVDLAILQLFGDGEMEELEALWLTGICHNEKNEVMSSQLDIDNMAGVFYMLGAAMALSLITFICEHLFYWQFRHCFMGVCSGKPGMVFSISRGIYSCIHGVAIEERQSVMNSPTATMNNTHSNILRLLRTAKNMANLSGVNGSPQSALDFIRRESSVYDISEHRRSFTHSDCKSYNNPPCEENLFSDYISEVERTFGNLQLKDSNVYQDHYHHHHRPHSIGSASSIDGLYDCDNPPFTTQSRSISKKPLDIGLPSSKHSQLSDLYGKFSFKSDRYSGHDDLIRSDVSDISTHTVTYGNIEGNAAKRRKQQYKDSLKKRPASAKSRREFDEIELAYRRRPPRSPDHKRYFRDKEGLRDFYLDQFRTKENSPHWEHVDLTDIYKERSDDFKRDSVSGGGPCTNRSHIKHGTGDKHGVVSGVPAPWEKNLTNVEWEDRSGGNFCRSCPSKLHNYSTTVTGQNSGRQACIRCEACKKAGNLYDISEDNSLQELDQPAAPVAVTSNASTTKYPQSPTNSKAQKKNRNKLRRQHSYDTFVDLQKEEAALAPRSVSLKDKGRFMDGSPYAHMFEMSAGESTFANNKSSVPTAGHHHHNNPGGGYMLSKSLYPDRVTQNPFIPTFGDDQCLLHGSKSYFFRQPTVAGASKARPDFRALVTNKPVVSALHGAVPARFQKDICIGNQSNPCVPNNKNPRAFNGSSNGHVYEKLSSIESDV

[9] = biological target: T2, hGluN1a + hGluN2B-G689S; assay: as above; assay type: cell-based; design: expressed in transfected cells; host or cells: Xenopus laevis oocytes injected with in vitro transcribed mRNA; details: 5 mM glutamate, 100 μM glycine, −60 mV; read-out: Mg^+2 IC50 (−60 mV)
Source text: as §1

[10] = system: hGluN1a and hGluN2B-wt or GluN2B-G689C or G689S (all channel types); assay: Arcaine block / competition assay, TEVC in oocytes; assay type: cell-based, human; details: 200 μM arcaine, 5 mM glutamate, 100 μM glycine, pH 6.5

In the case of N[C@H](CO)C(=O)O [D-serine], the “augmentation of currents by D-serine” value ([1]; 10 μM glycine) is reported as “poorly augmented”, the “augmentation of currents by D-serine” value ([1]; 100 μM (saturating) glycine) is reported as “no augmentation” and the “observed increases in currents by D-serine” value ([1]; sub-saturating glycine) is reported as “up to 60%”. For the same compound, the “response to D-serine” value ([2]; 10 μM glutamate) was “did not show any responses”, the “increase of the maximal current by D-serine” value ([2]; 5 mM glutamate) was ~ 60% and the “current with D-serine as fraction of the total current (5 mM glutamate)” value ([3]; 10 μM glutamate) was under 15%. The “increase in the glutamate current by D-serine” value ([3]; 10 μM glutamate) was ~ 2 fold and the “increase of the maximal current by D-serine” value ([3]; 5 mM glutamate) was ~ 60%.

In the case of N[C@@H](CCC(=O)O)C(=O)O [Glutamate, glutamate], the EC50 ([4]; wtE (1:1 G689S), read-out: EC50 Two site saturation (Equation 2) KD^H) is reported as 3.5 µM, the EC50 ([4]; wtE (1:1 G689S), read-out: EC50 Two site saturation (Equation 2) KD^L (converted)) is reported as 2460 µM and the EC50 ([4]; wtE (1:1 G689S), read-out: EC50 Two site saturation (Equation 3) KD^H) is reported as 3.79 µM. For the same compound, the EC50 ([4]; wtE (1:1 G689S), read-out: EC50 Two site saturation (Equation 3) KD^L (converted)) was 1210 µM, the EC50 ([4]; wtH (16:1 G689S), normalized to 100 μm glutamate, read-out: EC50 Two site saturation (Equation 2) KD^L (converted)) was 3390 µM and the EC50 ([4]; wtH (16:1 G689S), normalized to 100 μm glutamate, read-out: EC50 Two site saturation (Equation 3) KD^H) was 0.481 µM. The EC50 ([4]; wtH (16:1 G689S), normalized to 100 μm glutamate, read-out: EC50 Two site saturation (Equation 3) KD^L (converted)) was 1120 µM, the EC50 ([4]; wtH (16:1 G689S), read-out: EC50 Two site saturation (Equation 2) KD^L (converted)) was 3460 µM and the EC50 ([4]; wtH (16:1 G689S), read-out: EC50 Two site saturation (Equation 3) KD^L (converted)) was 1130 µM. The EC50 ([5]; wtE (1:1 G689C), read-out: EC50 Two site saturation (Equation 2) KD^H) was 1.73 µM, the EC50 ([5]; wtE (1:1 G689C), read-out: EC50 Two site saturation (Equation 2) KD^L (converted)) was 2130 µM and the EC50 ([5]; wtE (1:1 G689C), read-out: EC50 Two site saturation (Equation 3) KD^H) was 0.812 µM. It also gave an EC50 ([5]; wtE (1:1 G689C), read-out: EC50 Two site saturation (Equation 3) KD^L (converted)) of 778 µM, an EC50 ([5]; wtH (16:1 G689C), normalized to 100 μm glutamate, read-out: EC50 Two site saturation (Equation 3) KD^H) of 0.212 µM and an EC50 ([5]; wtH (16:1 G689C), normalized to 100 μm glutamate, read-out: EC50 Two site saturation (Equation 3) KD^L (converted)) of 154 µM. The EC50 ([5]; wtH (16:1 G689C), read-out: EC50 Two site saturation (Equation 2) KD^L (converted)) was 366 µM, the EC50 ([5]; wtH (16:1 G689C), read-out: EC50 Two site saturation (Equation 3) KD^H) was 0.212 µM and the EC50 ([5]; wtL (1:16 G689C), read-out: EC50 Two site saturation (Equation 2) KD^H) was 646 µM. It also gave an EC50 ([5]; wtL (1:16 G689C), read-out: EC50 Two site saturation (Equation 2) KD^L (converted)) of 5490 µM, an EC50 ([5]; wtL (1:16 G689C), read-out: EC50 Two site saturation (Equation 3) KD^H) of 65 µM and an EC50 ([5]; wtL (1:16 G689C), read-out: EC50 Two site saturation (Equation 3) KD^L (converted)) of 1430 µM.

C[C@]12N[C@H](Cc3ccccc31)c1ccccc12 [MK-801] was tested, and the “10–90% inhibition rate” value [6] was 9604 ± 547 ms; (29), the τoff ([6]; mono-exponential fit) was 4950 ± 456 ms; (29) and the “10–90% inhibition rate” value [7] was 18904 ± 1375 ms; (26). The τoff ([7]; mono-exponential fit) was 7907 ± 658 ms; (26).

[Mg+2] [Mg^+2] showed an IC50 [8] of 34.5 ± 3.8 µM and an IC50 [9] of 40 ± 2.1 µM.

In the case of NC(N)=NCCCCN=C(N)N [arcaine, arcaine-sulfate], the inhibition by arcaine [10] is reported as ~ 90%.
